Data on one compound can be found in US11091428B2 (HAPLOGEN GMBH, priority 2016, dated 2021).

Chains of the proteins cited; added tags and fusions are not shown.
UniProt P53816, whole entry: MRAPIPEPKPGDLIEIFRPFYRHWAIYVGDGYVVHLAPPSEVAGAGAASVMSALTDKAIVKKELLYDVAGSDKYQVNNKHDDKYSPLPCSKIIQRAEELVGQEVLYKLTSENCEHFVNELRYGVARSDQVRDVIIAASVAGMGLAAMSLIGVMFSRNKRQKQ

For this test, the target named is PLA2G16 (Homo sapiens, UniProt P53816). Nature of the test: Enzyme activity assay for PLA2G16 (Red/Green BODIPY PC-A2 fluorescence). As to conditions: read-out: IC50 values of the compounds determined in the enzyme activity assay for PLA2G16; His-tagged PLA2G16, 4 min pre-incubation, 2 nM to 50 μM. The source says:
A cDNA for PLA2G16(NM_007069) was custom-synthesized by Genscript (Piscataway, USA) and inserted into a pET-based bacterial expression vector [Moffatt, B. A. and Studier, F. W. (1986) J. Mol. Biol. 189, 113-130; Rosenberg, A. H., Lade, B. N., Chui, D., Lin, S., Dunn, J. J., and Studier, F. W. (1987) Gene 56, 125-135], enabling the expression of N-terminally Hexa-His-tagged PLA2G16. E. coli BL21(DE3) (Agilent) were transformed with pET-His-PLA2G16according to the manufacturer's instructions and plated on Carbenicillin-containing agar plates (final concentration: 100 μg/mL). […] Purified fractions were analyzed by SDS-PAGE followed by Coomassie staining to assess the purity.
Activity of the protein was assessed as follows: Red/Green BODIPY® PC-A2 (Invitrogen, 1 mM in DMSO) was mixed with equal volumes of 1,2-Dioleoyl-sn-glycero-3-phosphocholine (DOPC; Sigma Aldrich, 10 mM in Ethanol) and 1,2-Dioleoyl-sn-glycero-3-phospho-rac-(1-glycerol) (DOPG; Sigma Aldrich, 10 mM in Ethanol) and 0.5 volumes of Cholesterol (CHOL; Sigma Aldrich, 10 mM in Ethanol) and vortexed for 5 s. […]
In order to evaluate their inhibitory potential, compounds were dissolved at 10 mM concentration in DMSO and directly spotted into assay plates (Corning, Cat. No. 3576) using acoustic liquid transfer (Labcyte Echo 525). […] The relative increase of fluorescence over time is referred to as the enzyme activity. […]

Usually IC50 stands for the concentration needed to halve the response being measured. Consider `CC(C)C(=O)NCCCNC(=O)C(=O)[C@H]1CCC(=O)N1Cc1ccccc1`, for which the IC50 was under 1000 nM.
